In ChEMBL document CHEMBL2429742, “Design, synthesis, and biological evaluation of novel 3-pyrrolo[b]cyclohexylene-2-dihydroindolinone derivatives as potent receptor tyrosine kinase inhibitors” (Bioorg Med Chem Lett, 2013):

Key:
BXPC-3 = test: cells; conditions: Homo sapiens, BXPC-3, 72 h
HT-29 = test: cells; conditions: Homo sapiens, HT-29, 72 h

- IC50 (BXPC-3): 2430 nM
- IC50 (HT-29): 1730 nM
SMILES: CCN(CC)CCNC(=O)c1c(C)[nH]c2c1CCC/C2=C1/C(=O)Nc2ccc(C)cc21
